# Tests used:
# bone marrow cells = test: In vitro alkaline phosphatase assay for osteoblastic colony formation; type: cell-based, mouse; details: serum from tumor-free mice supplemented with sRAGE vs control conditions
# Protocol: To study whether tumor derived circulating factors can affect the osteogenic potential, osteoblastic colony formation was investigated after addition of serum pooled from individual mice that were either tumor-bearing or tumor-free. In some experiments tumor-free serum with or without sRAGE was added. Long bones (femur and tibia) and vertebrae of tumor-free C57BL/6 mice were harvested and flushed. Single cell suspensions were generated using 70 µm cell strainer and red blood cells removed in a ACK lysis step. Cells were counted and resuspended (4×10^7/ml) in osteogenic medium (DMEM supplemented with 10% FBS and 1% penicillin/streptomycin, 10 mM B-glycerophosphate and 50 μg/ml ascorbic acid). 4×10^6 cells were transferred to 6 well cell culture plates and 200 μl serum of tumor-bearing or tumor-free mice added. Medium was refreshed every second day and non-adherent cells were removed. Cells were fixed after 9-10 days by adding 4% PFA for 8 min followed by 2 washing steps with H2O and the alkaline phosphate substrate reaction (B5655, Sigma) according to manufactures procedure. As counter stain, Nucleofast Red (Polysciences, Inc) was used. The number of ALP positive colonies was evaluated by 2-3 independent persons in a blinded manner.
# developing neutrophils = test: In vitro co-culture of hematopoietic precursors and bone marrow stromal cells +/- sRAGE; type: cell-based, mouse
# Protocol: To test whether sRAGE altered neutrophil maturation from hematopoietic precursors via stromal cells, co-culture experiments were performed. In detail, 1×10^3 ST2 cells per well were cultured in 96 well plates for two days. Then, bone marrow was harvested from tumor-free mice and depleted of differentiated cells using negative MACS bead separation (Abs specific for B220, CD19, Ter119, CD11c, CD11b, NK1.1, Dx5, CD127, Ly-6G and CD90.2 were utilized). The flow-through was collected. The following conditions were tested: ST2 cells, with or without 1×10^4 lineage negative bone marrow cells, and with increased doses of sRAGE (namely: no sRAGE, 0.01 μg/ml, 0.1 μg/ml, 1 μg/ml). Neutrophil maturation was evaluated after three days by staining for CD11b, Ly-6G and CXCR2 surface expression using flow cytometry (1).
substance,measurement,setting,value
"sRAGE: The circulating form of RAGE, referred to as soluble RAGE; added exogenously to cultures",osteoblastic colony forming units,bone marrow cells,significantly increased
same,CXCR2 expression on developing neutrophils,"developing neutrophils; Lin- cKit+ bone marrow hematopoietic cells, increasing doses of exogenous sRAGE",increases
same,"CXCR2 expression, dependence on stromal cells",developing neutrophils; with or without ST2 pre-osteoblastic cell line,increased only in the presence of bone marrow stromal cells

# Reference: patent US20200132691A1, “DETECTION AND TARGETING OF TUMOR-PROMOTING NEUTROPHILS” (THE GENERAL HOSPITAL CORPORATION, priority 2017, published 2020)
